Values of other authors, collected in PMC7307925, “Human Serum Albumin Binding in a Vial: A Novel UV-pH Titration Method To Assist Drug Design” (Journal of Medicinal Chemistry, 2020).

Tested on: human serum albumin (HSA)
Conditions: 49 (SI ref 1,2), cited from earlier work

Row | SMILES | HSA% (HPLC), literature data (listed as Ketoconazole 1) [%] | HSA% (HPLC), literature data [%] | HSA% (HPLC), literature data (listed as sulindac) [%]
1 | CC(=O)N1CCN(c2ccc(OCC3COC(Cn4ccnc4)(c4ccc(Cl)cc4Cl)O3)cc2)CC1 (centres unmarked) [Ketoconazole] | 93 | 93.0 | 
2 | CN1C(C(=O)Nc2ccccn2)=C(O)c2ccccc2S1(=O)=O [Piroxicam] |  | 96.8 | 
3 | CC1=C(CC(=O)O)c2cc(F)ccc2/C1=C\c1ccc([S+](C)[O-])cc1 (centres unmarked) [Sulindac] |  | 92 | 92.0

Where two headings read alike, the source gives them in different places.
